The source of these data is publication PMC12068008 (International Journal of Molecular Sciences, 2024).

Each structure is given as a SMILES string.

This data set can be described thus: physchem. The data set is classed as physicochemical. The settings on record: shake flask, n-octanol/water, 25 °C, 1 × 10^−4 M; read-out: logP, experimentally obtained. The procedure:
To measure the lipophilicity (expressed as the partition coefficient) of the synthesized compounds and their constituents, using a “shake-flask” method, a two-phase system composed of n-octanol and deionized water was used. The stock solutions of the compounds were diluted with water to the concentration of 1 × 10^−4 M, and this solution was used for further investigation. […] The concentration of the compounds was calculated from their extinction coefficient at 260 nm that was previously determined.

As a reminder, the logP is the decadic logarithm of the partition coefficient of the neutral form, usually between octanol and water. With `O=c1c(O)c(-c2ccc(O)c(O)c2)oc2cc(O)cc(O)c12` [Quercetin, reference compound], the logP at 30 min came to 1.6.
